Data taken from ChEMBL document CHEMBL5335798, “First-in-Class Selenium-Containing Potent Serotonin Receptor 5-HT6 Agents with a Beneficial Neuroprotective Profile against Alzheimer's Disease” (J Med Chem, 2024).

Assay: in vitro
Conditions: human, SH-SY5Y cells

Structure (SMILES): CCC([Se]c1ccc2ccccc2c1)c1nc(N)nc(N2CCN(C)CC2)n1 (configuration not stated)
- IC50 at 27 h: 66.1 µM

Structure (SMILES): CC([Se]c1ccc2ccccc2c1)c1nc(N)nc(N2CCN(C)CC2)n1 (configuration not stated)
- IC50 at 27 h: 40.6 µM
